From IntAct's records for PubMed 17289840

B1: Glutamate receptor 2 (Rattus norvegicus (Rat)), P19491 (parent)
chain: MQKIMHISVLLSPVLWGLIFGVSSNSIQIGGLFPRGADQEYSAFRVGMVQFSTSEFRLTPHIDNLEVANSFAVTNAFCSQFSRGVYAIFGFYDKKSVNTITSFCGTLHVSFITPSFPTDGTHPFVIQMRPDLKGALLSLIEYYQWDKFAYLYDSDRGLSTLQAVLDSAAEKKWQVTAINVGNINNDKKDETYRSLFQDLELKKERRVILDCERDKVNDIVDQVITIGKHVKGYHYIIANLGFTDGDLLKIQFGGANVSGFQIVDYDDSLVSKFIERWSTLEEKEYPGAHTATIKYTSALTYDAVQVMTEAFRNLRKQRIEISRRGNAGDCLANPAVPWGQGVEIERALKQVQVEGLSGNIKFDQNGKRINYTINIMELKTNGPRKIGYWSEVDKMVVTLTELPSGNDTSGLENKTVVVTTILESPYVMMKKNHEMLEGNERYEGYCVDLAAEIAKHCGFKYKLTIVGDGKYGARDADTKIWNGMVGELVYGKADIAIAPLTITLVREEVIDFSKPFMSLGISIMIKKPQKSKPGVFSFLDPLAYEIWMCIVFAYIGVSVVLFLVSRFSPYEWHTEEFEDGRETQSSESTNEFGIFNSLWFSLGAFMQQGCDISPRSLSGRIVGGVWWFFTLIIISSYTANLAAFLTVERMVSPIESAEDLSKQTEIAYGTLDSGSTKEFFRRSKIAVFDKMWTYMRSAEPSVFVRTTAEGVARVRKSKGKYAYLLESTMNEYIEQRKPCDTMKVGGNLDSKGYGIATPKGSSLGNAVNLAVLKLNEQGLLDKLKNKWWYDKGECGSGGGDSKEKTSALSLSNVAGVFYILVGGLGLAMLVALIEFCYKSRAEAKRMKVAKNPQNINPSSSQNSQNFATYKEGYNVYGIESVKI

Variants of: B1
Conditions: with ap2m1_rat Ap2m1, P84092

Row | effect of a mutation on the interaction | Variant
1 | decreasing interaction strength | K844A

Variants of: B1
Conditions: with ap2m1_rat Ap2m1, P84092
Remark: another data set of the same source

Row | effect of a mutation on the interaction | Variant
2 | decreasing interaction strength | K847A
3 | decreasing interaction strength | R845A
